Reference: US4554284A, “7-(2-Aminoethyl)-1,3-benzthia- or oxa-zol-2(3H)-ones” (Smithkline Beckman Corporation, priority 1984, dated 1985)

By UniProt entry, the sequences of proteins in these tests, tags left out. Residues count along the entry.
UniProt G1T1Q0, 1-443: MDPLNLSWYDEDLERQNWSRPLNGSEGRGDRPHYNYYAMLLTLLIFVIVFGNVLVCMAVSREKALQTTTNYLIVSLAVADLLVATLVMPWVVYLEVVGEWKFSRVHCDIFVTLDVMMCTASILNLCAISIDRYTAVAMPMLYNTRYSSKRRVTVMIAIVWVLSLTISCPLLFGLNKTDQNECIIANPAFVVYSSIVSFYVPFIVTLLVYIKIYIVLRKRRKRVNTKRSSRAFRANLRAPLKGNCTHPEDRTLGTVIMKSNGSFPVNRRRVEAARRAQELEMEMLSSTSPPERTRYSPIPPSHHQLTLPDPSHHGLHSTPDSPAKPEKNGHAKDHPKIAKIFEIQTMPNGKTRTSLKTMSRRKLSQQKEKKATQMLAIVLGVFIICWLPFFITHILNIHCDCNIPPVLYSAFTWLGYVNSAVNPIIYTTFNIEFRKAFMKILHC

Target: T1, D2-receptors (presynaptic dopaminergic receptors) (Oryctolagus cuniculus, UniProt G1T1Q0)
T1 construct: perfused rabbit ear artery protocol; from tissue; host or cells: rabbit ear artery (perfused, isolated)
Test: perfused rabbit ear artery protocol (D2-agonist activity)
Format: cell-based

**Q.** With `CCCN(CCC)CCc1ccc(O)c2c1CC(=O)N2` [F, 7-hydroxy-4-[2-(di-n-propylamino)ethyl]-2(3H)-indolone, reference compound] as the molecule, how does the EC50 read?
**A.** 2 nM
